Assay results from patent US11903945B2, “Methods of treating antipsychotic-induced weight gain with miricorilant” (Corcept Therapeutics Incorporated, priority 2019, dated 2024).
Where two headings read alike, the source gives them in different places.

Key:
[1] = patients, cited from earlier work; for Mean body weight increase over a period of ten weeks: Allison et al., Am J. Psychiatry 1999
[2] = adults treated with olanzapine; prescribing information; cited from earlier work
[3] = Method: The dose level tested in our Phase 1b trial was 600 mg/day.
A 2-week, single-center, double-blind, randomized, placebo-controlled study was conducted in healthy male subjects age 18-55 years with BMI between 18-25 kg/m^2 and a stable body weight (defined as the Day 1 pre-dose body weight to be within ±2.0% of screening body weight). […] Food was freely available to all subjects during the study. The difference in mean change in absolute body weight after administration of OLZ+PBO compared to OLZ+MIRI was evaluated using a repeated measures model with imputation applied to missing values.
(HOMA2-IR values were calculated from fasted glucose and insulin levels using the HOMA (HOMA2 Model) Calculator® application programming interface for SAS (Oxford University 2013, available at the website www.dtu.ox.ac.uk/homacalculator)).

[4] = female rats; for Group mean body weight at Day 34: vehicle-only Group 1: 270 g
Method: On day 35, the rodents were randomized to 4 different interventions and remained on study until day 57. The four intervention groups were: OLZ+vehicle daily by oral gavage; OLZ+2 mg/kg/day miricorilant once daily; OLZ+1 mg/kg miricorilant twice daily; and OLZ+10 mg/kg/day miricorilant once daily. A fifth group, a vehicle-only group (n=12), was included as a control for the entirety of the 57 days.
Starting at week 6, either miricorilant (MIRI, 3 dosing regimens) or vehicle 2 was administered orally. […] The vehicle-only group was included as a control for the 8-week duration of the study. Efficacy was assessed based on body weight, food consumption, mortality, and clinical observations.
The articles were stored refrigerated between dosing.
Body weights were measured and recorded three times weekly during the acclimation period, every other day beginning on Day −1, and prior to termination on Day 57. Food consumption was measured and recorded daily beginning on Day −14. Body weights and food consumption were measured within 2 hours of the initial time on Day −1. Any changes in bodyweight greater than 15 grams (g) and changes in food consumption greater than 5 g were verified. Food jars were weighed twice for precision during food jar changes.

| SMILES | Average weight gain in a year ([1]; Allison et al. 2001) | Mean body weight increase over a period of ten weeks [1] | Triglyceride level increase after 12 weeks [2] | Triglyceride level increase over 48 weeks [2] | Insulin resistance (HOMA2-IR) increase from baseline, percent ([3]; healthy male subjects, day not given, listed as miricorilant = olanzapine+miricorilant, listed as olanzapine = olanzapine+placebo) | ALT increase from baseline, percent, day 7 ([3]; human, in vivo) | ALT increase from baseline, percent, day 12 ([3]; human, in vivo) | AST increase from baseline, percent, day 7 ([3]; human, in vivo) | AST increase from baseline, percent, day 12 ([3]; human, in vivo) | Group mean body weight at Day 34 ([4]; Group 2, olanzapine 2.4 mg/kg/day oral (BID) Days 1-34) | Group mean body weight at Day 34 ([4]; Group 3, olanzapine 2.4 mg/kg/day oral (BID) Days 1-34, before miricorilant) | Group mean body weight at Day 34 ([4]; Group 4, olanzapine 2.4 mg/kg/day oral (BID) Days 1-34, before miricorilant) | Group mean body weight at Day 34 ([4]; Group 5, olanzapine 2.4 mg/kg/day oral (BID) Days 1-34, before miricorilant) | Body weight gains attributed to Olanzapine at Day 34 ([4]; Groups 2 to 5 vs vehicle-only control Group 1 (270 g)) | Group mean body weight at Day 57 ([4]; olanzapine control Group 2 (OLZ + vehicle 2)) | Mean increase in food consumption across the groups treated with olanzapine ([4]; weight-induction phase (weeks 1-5)) | Mean body weight of olanzapine treated groups by day 34 ([4]; vs 270 g vehicle only control, p<0.05) | Weight gained after 10 weeks of treatment ([1]; Allison et al. 2001) |
| --- | --- | --- | --- | --- | --- | --- | --- | --- | --- | --- | --- | --- | --- | --- | --- | --- | --- | --- |
| Cc1cc2c(s1)Nc1ccccc1N=C2N1CCN(C)CC1 [olanzapine, reference compound] | about 12 kg | 4.15 kg | 20.8 mg/dL | 18.7 mg/dL | 150% | 225% | 724% | 137% | 338% | 298 g | 296 g | 292 g | 292 g | 8 to 10% | 309 g | 13% | 294.5 g |  |
| Cc1nc2n(c(=O)c1CCN1CCC(c3noc4cc(F)ccc34)CC1)CCCC2 [risperidone] |  | 2.10 kg |  |  |  |  |  |  |  |  |  |  |  |  |  |  |  | about 2.5 kg |
